{
  "source": "patent US20100298280A1",
  "about": "“Compounds for the Modulation of Huntingtin Aggregation, Methods and Means for Identifying Such Compounds” (priority 2007, published 2010)",
  "molecular_target": "mutant huntingtin aggregates (HDex1Q68 fused to ECFP/EYFP) (Homo sapiens, UniProt P42858, INS38QQQQQQQQQQQQQQQQQQQQQQQQQQQQQQQQQQQQQQQQQQQQQQQ)",
  "assay": "Cellular FRET aggregation assay in stable Tet-off CHO-AA8/Q68-Q68 cells",
  "assay_type": "cell-based",
  "conditions": "48 h, 2% DMSO",
  "procedure": "To determine the potential of possibly inhibiting substances the inventors performed dose response assays at concentrations ranging from 1, to 100 μM.\nScreening was performed in 96-well plates (greiner bio-one) containing 1×10^4 cells/well of the stably inducible tet off cell lines htt-mut (six-fold) and CHO-AA8 line (three fold) for background control. Simultaneously, each compound was checked for its potential autofluorescence.\nTwo stable inducible CHO Tet off cell lines were constructed expressing simultaneously wildtype (CHO-AA8/Q17-Q17) or mutant (CHO-AA8/Q68-Q68) huntingtin fragments fused to ECFP or EYFP (FIG. 1B) after withdrawal of doxicycline (dox). Basal and induced expression levels of huntingtin fusion proteins were examined by Western blot analysis at different time intervals (4, 24, 48, and 72 hours). […] For the screening approach stable inducible huntingtin expressing cell lines were seeded in 96-well plates and the fluorescence intensities were measured with a fluorescence plate reader.\nThe test compounds were mixed in a fresh doxicycline-free medium with 2% DMSO and added to the Tet off cell lines two to three hours after seeding and attachment of the cells.\nThe FRET-measurement was performed 48 h later.\nSubsequently, a second screening round was performed at concentration range 1, 3, and 10 μM, respectively.",
  "data": [
    {"compound": "Nc1nc2ccc(OC(F)(F)F)cc2s1", "note": "[Riluzole]", "values": [
      {"measurement": "FRET-signal (effect in words)", "result": "no effect"}
    ]}
  ]
}
